Legend:
[1] = test system: mouse plasma proteins; experiment: Ultrafiltration assay, binding to mouse plasma proteins; conditions: 37 °C, 30 min
Experimental: (§1) Plasma protein-binding properties of ^177Lu-Ibu-PSMA, ^177Lu-Ibu-Dα-PSMA, ^177Lu-Ibu-N-PSMA and ^177Lu-Ibu-DAB-PSMA as well as ^177Lu-PSMA-617 and ^177Lu-PSMA-ALB-56 were investigated using an ultrafiltration assay as previously reported. In short, the PSMA ligands were labeled with ^177Lu at a molar activity of 50 MBq/nmol, diluted in PBS (pH 7.4) to an activity concentration of 10 MBq/500 μL and incubated in mouse or human plasma at 37 °C for 30 min. After incubation, each sample was loaded on a centifree ultrafiltration device (4104 centrifugal filter units; Millipore, 30000 Da nominal molecular weight limit, methylcellulose micropartition membranes) and centrifuged at 2000 rpm for 40 min at 20 °C to allow the separation of the unbound and plasma-bound radioligand fractions. Samples from the loading solution and samples from the filtrate were taken and counted for radioactivity in a γ-counter. The amount of plasma-bound radioligand was calculated as the fraction of radioactivity measured […] relative to the corresponding loading solution (set to 100%). Control experiments were performed with each radioligand by incubation in PBS (pH 7.4) prior to filtration in order to determine the unspecific binding of the radioligands to the filter membrane. The experiments were performed at least three times for each radioligand. […]

Amino acid sequences for entries named in this document (tags omitted).
UniProt Q04609, whole entry: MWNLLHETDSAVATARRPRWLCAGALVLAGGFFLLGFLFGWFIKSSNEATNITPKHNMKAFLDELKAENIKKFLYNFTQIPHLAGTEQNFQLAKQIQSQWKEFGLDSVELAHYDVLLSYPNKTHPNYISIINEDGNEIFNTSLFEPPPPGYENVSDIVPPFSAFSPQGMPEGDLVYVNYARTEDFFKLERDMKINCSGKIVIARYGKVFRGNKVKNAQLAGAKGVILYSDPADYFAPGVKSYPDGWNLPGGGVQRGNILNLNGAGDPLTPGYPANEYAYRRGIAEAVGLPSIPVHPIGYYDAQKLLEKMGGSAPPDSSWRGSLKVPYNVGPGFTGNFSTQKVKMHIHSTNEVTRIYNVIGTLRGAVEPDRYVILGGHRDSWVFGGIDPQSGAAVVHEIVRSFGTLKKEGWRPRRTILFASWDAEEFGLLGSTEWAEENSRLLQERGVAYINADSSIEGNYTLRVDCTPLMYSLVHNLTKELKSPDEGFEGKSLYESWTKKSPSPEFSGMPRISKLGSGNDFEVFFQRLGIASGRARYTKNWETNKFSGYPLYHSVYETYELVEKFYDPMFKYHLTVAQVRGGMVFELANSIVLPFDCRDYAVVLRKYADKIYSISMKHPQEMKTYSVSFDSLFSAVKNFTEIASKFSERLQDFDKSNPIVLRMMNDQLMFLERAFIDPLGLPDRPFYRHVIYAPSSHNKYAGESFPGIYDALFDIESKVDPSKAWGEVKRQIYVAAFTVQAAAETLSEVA

[2] = test system: non-tumor-bearing athymic BALB/c nude mice; experiment: In vivo excretion, whole-body activity measurement; conditions: 4 h p.i.; activity right after injection = 100%
Experimental: 14. Determination of the in vivo excretion of the radioligands
Methods: In order to determine the retention and excretion of each radioligand, non-tumor-bearing athymic BALB/c nude mice were injected with each radioligand (n = 2−3; per radioligand). The mice were measured for radioactivity immediately after injection and at several time points after injection up to 56 h p.i. (Figure S8). The PSMA ligands were, therefore, labeled at a molar activity of 25 MBq/nmol and diluted in saline containing 0.05% bovine serum albumin (BSA). Mice were intravenously injected with the respective radioligand (25 MBq, 1 nmol, 100 µL) and – after e mptying the urinary bladder – measured in a dose calibrator immediately (t = 0) and at various time points after injection up to 56 h p.i..
The activity measured right after injection was set as 100%. The data points present the average of three mice per radioligand ± standard deviation (SD). […]
to the albumin-binding properties of the incorporated ibuprofen. The ibuprofen-bearing radioligands […]
p-tolyl moiety as stronger albumin binder. […]
excretion patterns for the single radioligands, which was manifested most prominently between 1 h and 4 h p.i. At all measured time points, retention was highest for the radioligand without additional linker entity, 177Lu-Ibu-PSMA. […]
Figure S8. […] The activity measured right after injection was set as 100%. […]

[3] = target: PSMA (Homo sapiens, UniProt Q04609); experiment: Determination of KD values (saturation binding on PC-3 PIP tumor cells); conditions: read-out: KD values, 30 min at 4 °C, 2-PMPA block for non-specific binding
Experimental: The KD values, indicating the PSMA-binding affinity of the radioligands, were determined using PC-3 PIP tumor cells. The cells were seeded in 48-well-plates (8 x 10^4 cells in 500 µL RPMI medium/well) allowing adhesion and growth overnight. During the experiment, well plates were kept on ice. After removal of the supernatant, the cells were washed once with ice-cold PBS (pH 7.4) before addition of different concentrations (1‒2000 nM) of the radiolabeled PSMA ligands (5 MBq/nmol) in ice-cold RPMI medium without supplements. Some of the PC-3 PIP tumor cell samples were co-incubated with 2-phosphonomethyl pentanedioic acid (2-PMPA, 200 μM) to block PSMA enabling the determination of non-specific binding. After incubation of the well-plates for 30 min at 4 °C, the supernatants were removed and the cells washed twice with ice-cold PBS. The cells were lysed (NaOH, 1 M, 600 µL) and transferred to 4 mL tubes for counting the activity in a γ-counter (Wallac Wizard 1480, Perkin Elmer). The KD values were determined by plotting specific binding (total binding minus unspecific binding determined with blocking agent) against the molar concentration of the added radioligands. […] Statistical significance was assessed using a one-way ANOVA with a Tukeys's multiple comparison post-test in GraphPad Prism software (version 7). […]

[4] = test system: human plasma proteins; experiment: Ultrafiltration assay, binding to human plasma proteins; conditions: 37 °C, 30 min
Experimental: as §1

[5] = n-octanol/PBS; cited from earlier work

Cc1ccc(CCCC(=O)NCCCC[C@H](NC(=O)CN2CCN(CC(=O)O)CCN(CC(=O)O)CCN(CC(=O)O)CC2)C(=O)NCC2CCC(C(=O)N[C@@H](Cc3ccc4ccccc4c3)C(=O)NCCCC[C@H](NC(=O)N[C@@H](CCC(=O)O)C(=O)O)C(=O)O)CC2)cc1 (some centres unmarked)
binding to mouse plasma proteins (bound fraction) [1]: 89 ± 2% | body retention of activity [2]: 51% | Kd [3]: 0.03 µM | binding to human plasma proteins (bound fraction) [4]: 95 ± 1% | logD value [5]: -2.9

From PMC6993238, “Development of a new class of PSMA radioligands comprising ibuprofen as an albumin-binding entity” (Theranostics, 2020)
